The results in this text go back to patent US11292791B2.

Structures are written as SMILES. This is a selection: effects in other tests are not listed, and their absence says nothing.

This experiment has as its target BRD4 (Homo sapiens (Human), UniProt O60885). The experiment in a line: HTRF biochemical assay for BRD4 activity. The note with it: read-out: BRD4 IC50 (μM gmean), HTRF (TR-FRET) biochemical assay.

Regarding `COC(=O)N1c2ccc3c(nc(Cc4ccccc4)n3C3CNC3)c2CC[C@@H]1C`, the IC50 lay in the range of 1 to 1000 µM.
